Details: two patients; solution of 250 mg tetracycline capsules in 100 ml water, topical oral, twice a day for a week

CN(C)[C@@H]1C(O)=C(C(N)=O)C(=O)[C@@]2(O)C(O)=C3C(=O)c4c(O)cccc4[C@@](C)(O)[C@H]3C[C@@H]12 [tetracycline]
adverse effects: neither one of the patients experienced any adverse effects
